In test [1] the target is GSK3b (GST-full length GSK3b) (Homo sapiens, UniProt P49841). Put plainly: GSK3b TR-FRET kinase inhibition assay. The conditions noted are these: read-out: GSK3b TR-FRET 1 mM ATP Average IC50, Table 3. How it is done:
(§1) TR-FRET assay was performed in a white, 384 well, low volume, flat bottom plate (Grenier). After a 30 minute preincubation in assay buffer with the indicated concentration of compound, the kinase activity was initiated by the addition of the substrates. 1 nM GSK3a (GST-full length GSK3a [SignalChem G08-10G]) or 1 nM GSK3b (GST-full length GSK3b: [SignalChem G08-9G]) were then incubated at ambient temperature for 100 minutes in 10 μl of 50 mM Tris, pH 7.5, 20 mM MgCl2, 0.05 mM DTT, 100 μg/ml BSA and 1% DMSO, with 200 nM biotinylated peptide substrate (biotinylated and S645 phosphorylated glycogen synthase 631-650) and ATP (e.g., at 2 μM, 4 μM, 10 μM, 100 μM, or 1 mM). The kinase activity was quenched with 2 μl of 250 mM EDTA. A 10 μl volume of 40 nM Strepavidin-d2, 2 nM […] antibody in TR-FRET Detection Buffer (Invitrogen) was then added. After 60 min at room temperature the plate was read on Envision plate reader using Ex: 340 nm, Em: 615 nm and […]. The normalized 665/615 Signal ratio versus log compound concentration was analyzed by XLFIT to yield IC50 values.
On the technique in general: In TR-FRET formats the signal depends on donor and acceptor labels being close together.

By UniProt entry, the sequences of proteins in these tests, tags left out.
UniProt P49841, whole entry: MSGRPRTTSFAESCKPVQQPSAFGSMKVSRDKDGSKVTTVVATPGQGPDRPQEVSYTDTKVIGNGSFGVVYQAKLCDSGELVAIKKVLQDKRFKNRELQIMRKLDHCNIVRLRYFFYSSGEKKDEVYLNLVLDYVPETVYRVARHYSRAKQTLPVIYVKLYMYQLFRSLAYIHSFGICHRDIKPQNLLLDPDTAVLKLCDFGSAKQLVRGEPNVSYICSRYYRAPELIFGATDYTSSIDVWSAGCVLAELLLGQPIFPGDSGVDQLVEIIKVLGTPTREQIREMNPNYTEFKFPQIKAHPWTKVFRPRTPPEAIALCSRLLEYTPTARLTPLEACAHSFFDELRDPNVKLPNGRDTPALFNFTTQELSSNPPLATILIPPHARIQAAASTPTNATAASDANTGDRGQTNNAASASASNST
UniProt P49840, whole entry: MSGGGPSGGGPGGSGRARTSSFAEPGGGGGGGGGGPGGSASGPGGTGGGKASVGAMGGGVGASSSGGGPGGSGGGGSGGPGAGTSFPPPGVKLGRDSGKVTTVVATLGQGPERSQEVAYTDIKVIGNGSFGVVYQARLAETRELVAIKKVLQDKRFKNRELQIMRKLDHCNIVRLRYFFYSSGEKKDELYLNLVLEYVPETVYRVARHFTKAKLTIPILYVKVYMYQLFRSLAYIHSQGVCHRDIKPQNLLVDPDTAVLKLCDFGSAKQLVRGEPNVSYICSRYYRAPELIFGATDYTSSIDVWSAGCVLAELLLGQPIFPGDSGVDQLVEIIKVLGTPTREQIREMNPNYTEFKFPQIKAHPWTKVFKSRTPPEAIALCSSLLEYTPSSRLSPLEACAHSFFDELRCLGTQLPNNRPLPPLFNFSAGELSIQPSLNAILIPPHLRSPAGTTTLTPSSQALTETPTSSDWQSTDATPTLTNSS

For test [2], the target named is GSK3a (GST-full length GSK3a) (Homo sapiens, UniProt P49840). As to the kind of experiment: GSK3a TR-FRET kinase inhibition assay. The conditions noted are these: read-out: GSK3a TR-FRET 1 mM ATP Average IC50, Table 3. How it is done: as §1

With `COc1cncc(F)c1-c1cccc(C2(C)C3=C(CC(C)(C)CC3=O)Nc3ncc(CC(C)(C)C)cc32)c1` (single isomer, unassigned), the IC50 in test [1] and in test [2] was 5 to 20 µM throughout.

(Values after patent publication US20260103465A1, “GLYCOGEN SYNTHASE KINASE 3 INHIBITORS AND USES THEREOF” (The Broad Institute, Inc., priority 2023, published 2026).)
